Results reported in publication PMC4227788, “Architecture and ssDNA interaction of the Timeless-Tipin-RPA complex” (Nucleic Acids Research, 2014).

B1: Timeless-Tipin complex (Tim residues 1-1134 with full-length Tipin), tags cleaved (complex, mouse)
chain 1: MDLYMMNCELLATCSALGYLEGGTYHKEPDCLESVKDLIRYLRHEDETRDVRQQLGAAQILQSDLLPILTQHRQDKPLFDAVIRLMVNLTQPALLCFGSVPKDSSVRHHFLQVLTYLQAYKEAFASEKAFGVLSETLYELLQLGWEDRQEEDNLLIERILLLVRNILHVPANLEQEKSIDDDASIHDRLLWAIHLSGMDDLLLFLSSSSAEQQWSLHVLEIISLMFRDQTPEQLAGVGQGRLAQERSTDVAELEVLRQREMAEKRARALQRGNRHSRFGGSYIVQGLKSIGEKDVVFHKGLHNLQNYSSDLGKQPRRVPKRRQAAQELSVHRRSVLNVRLFLRDFCSEFLENCYNPLMGAVKDHLLRERAQQHDETYYMWAMAFFMAFNRAATFRPGLVSETLSIRTFHFVEQNLTNYYEMMLTDRKEAASWARRMHLALKAYQELLATVNEMDMCPDEAVRESSRIIKNNIFYMMEYRELFLALFRKFDERYHPRSFLRDLVETTHLFLKMLERFCRSRGNLMVQNKRKKRKKKKKVQDQGVAFSQSPGELEAMWPALAEQLLQCAQDPELSVDPVVPFDAASEVPVEEQRVEAMVRIQDCLTAGQAPQALALLRSAREVWPEGNAFGSPVISPGEEMQLLKQILSTPLPRQQEPEEGDAEEEEEEEEEEELQVVQVSEKEFNFLEYLKRFASSTIVRAYVLLLRSYRQNSAHTNHCIAKMLHRLAHGLGMEALLFQLSLFCLFNRLLSDPAAAAYKELVTFAKYIIGKFFALAAVNQKAFVELLFWKNTAVVREMTQGYGSLDSGSSSHRAPLWSPEEEAQLQELYLAHKDVEGQDVVETILAHLKVVPRTRKQVIHHLVRMGLADSVKEFQKRKGTQIVLWTEDQELELQRLFEEFRDSDDVLGQIMKNITAKRSRARVVDKLLALGLVSERRQLYKKRRKKLAPSCMQNGEKSPRDPWQEDPEEEDEHLPEDESEDEESEEGLPSGQGQGSSSLSAENLGESLRQEGLSAPLLWLQSSLIRAANDREEDGCSQAIPLVPLTEENEEAMENEQFQHLLRKLGIRPPSSGQETFWRIPAKLSSTQLRRVAASLSQQENEEEREEEPEPGVPGEQGPSEEHRTEALRALLSAR
chain 2: MLEQEENGLFEIPDYEHVEDETFPPFPPPASPERDPADAEPEEGSGSGVPVPPKRTVKRNLPKLDATRLTSERGLPALRHVFDKTKFKGKGHEAEDLKTLIRHMEHWAHRLFPKLQFEDFIDRVENLGNKKEVQTCLKRIRLDLPIVHEDFVNNNDEVGEANGPDVSATGFDPFLTSSSDSRKFASEPTRSLTEEQQQRIERNKQLALERRQAKLLSNSQSLENDVTVEENSTGEDQEESNGLNIDTADGPHDVPFASTHEEEQCKAEETQLDHTNLD
notes: Timeless (Tim), mouse, AB019001, aa 1-1134; lacks the C-terminal residues 1135-1197; Constructs are written His-Tim and His-GST-Tipin; also called Tim-Tipin; TTP; source: E. coli BL21 (DE3) gold with pRARE, co-expressed, purified (Ni-NTA, Q-sepharose, 3C cleavage, SEC); copies: 1 + 1
B2: RPA DNA-binding core with the WH domain (RPA70 190-623 / RPA32 43-270 / RPA14 1-121) (complex, mouse)
chain 1: QSKVVPIASLTPYQSKWTICARVTNKSQIRTWSNSRGEGKLFSLELVDESGEIRATAFNEQVDKFFPLIEVNKVYYFSKGALKIANKQFSAVKNDYEMTFNNETSVLPCEDGHHLPTVQFDFTGIGDLESKAKDALVDIIGICKSYEDSIKITVKSNNREVAKRNIYLMDMSGKVVTTTLWGEDADKFDGSRQPVMAIKGARVSDFGGRSLSVLSSSTVIVNPDIPEAYKLRGWFDSEGQALDGVSISDHRSGGAGGGNTNWKTLHEAKSENLGQGDKADYFSTVAAVVFLRKENCMYQACPTQDCNKKVIDQQNGLYRCEKCDREFPNFKYRMILSANIADFQENQWVTCFQESAEAILGQNTMYLGELKEKNEQAFEEVFQNANFRSFTFRIRVKLETYNDESRIKATVMDVKPVDFRDYGRRLIANIRKNM
chain 2: AQHIVPCTISQLLSATLTDEVFRIGDVEISQVTIVGIIRHAEKAPTNIVYKIDDMTAPPMDVRQWVDTDDASGENAVVPPETYVKVAGHLRSFQNKKSLVAFKIIPLEDMNEFTAHILEVVNSHMMLSKPNSQASAGRPSMSNPGMSEPGNFSGNNFMPANGLTVVQNQVLNLIKACPRPEGLNFQDLRSQLQHMPVPSIKQAVDFLCNEGHIYSTVDDDHFKSTDAE
chain 3: MEDIMQLPKARVNASMLPQYIDRPVCFVGKLEKIHPTGKMFILSDGEGKNGTIELMEPLDEEISGIVEVVGKVTAKATVLCASYTLFKEDTNRFDLELYNEAVKIINELPQFFPVGLPQHE

Key:
[1] = target: B2; assay: SEC + SEC-MALS; analytical SEC on Superose 6 3.2/PC in Buffer A (20 mM Hepes pH 7.5, 125 mM NaCl, 2 mM DTT, 0.01 mM zinc acetate), Tim-Tipin:RPA 16 μM:16 μM or 16 μM:32 μM; static light scattering (SLS) on Superdex 200 5/150, 2 mg/ml; conditions: both partners purified
[2] = target: B1; assay: MST; 100 nM Cy3-labelled RPA titrated with non-labelled Tim-Tipin (25-80 550 nM) in Buffer A, 10 min at RT; Hill fit; three repeats; conditions: both partners purified

Row | Binder | stoichiometry N [1] | Kd [2]
1 | B1 | 1 | 
2 | B2 |  | 180 ± 40 nM
